According to patent US20080317753A1, “SELECTING PATIENTS FOR THERAPY WITH A HER INHIBITOR” (GENENTECH, INC., priority 2004, published 2008):

Tested on: ovarian cancer, primary peritoneal carcinoma or fallopian tube carcinoma
Test: Example 3: planned therapy of patients with gene expression profile associated with HER2 phosphorylation
Assay type: in vivo, human
Description: Patients who have progressed while receiving a platinum-based chemotherapy regimen, or patients who have progressed within 6 months after completing a platinum-based regimen, will be eligible for this study. Patients will be randomized to either receive gemcitabine in combination with pertuzumab, or gemcitabine in combination with placebo. Gemcitabine will be administered at 1000 mg/m^2 on days 1 and 8 of a 21 day cycle for a maximum of 8 cycles. Gemcitabine will be infused first over 30 minutes. Dose reductions will be permitted for toxicity. […] Response will be assessed at Cycles 3, 5, 7, 9, 13 and 17. Measurable disease will be assessed using the Response Evaluation Criteria for Solid Tumors (RECIST), by clinical evaluation and CT scan or equivalent. Response for subjects with evaluable disease will be assessed according to changes to CA-125 and clinical and radiologic evidence of disease. Responses should be confirmed 4-8 weeks after the initial documentation of response.

**Q.** With “pertuzumab: humanized antibody comprising light and heavy chain sequences SEQ ID NOS. 13 and 14; inhibits dimerization of HER2 with other HER receptors” as the substance, how does the “signs or symptoms of cancer by primary or secondary efficacy endpoints” value (gemcitabine in combination with pertuzumab, 840 mg loading dose, then 420 mg, 21 day cycle) read?
**A.** The value was “improvement in the signs or symptoms”.

**Q.** And the “clinical benefit, patients with expression profile compared to patients without” value (patients with a gene expression profile associated with HER2 phosphorylation)?
**A.** The value was “greater clinical benefit”.
